Reference: US11173193B2, “Immunobiological products” (priority 2016, dated 2021)

Test: Solubility of hydro-colloid and chitosan
Format: physicochemical
Procedure: Test solution: An adequate sample of Chitosan HCl, Chitosan-HAc, Chitosan, Chitosan-Valeric acid-Hydro Colloid and valeric acid, respectively was dissolved in the solvent above. This mixture was shacked and afterwards sonified in an ultrasonic bath for 5 min.
Sample: Chitosan suspended in water
Result: An acceptable solution of Chitosan in waterish or organic solvents like Methanol etc. is not possible. A suitable solubilization of Chitosan is only possible in stronger acids like HCl or HAc under production of Chitosan HCl or Chitosan HAc.

Q: Which Solubility in water does the source give for Chitosan-Valeric acid-Hydro-Colloid here?
A: The Solubility in water was “soluble in: Water”.
